Source: PubChem
Rango complex inh: qHTS Assay for Inhibitors of Rango (Ran-regulated importin-beta cargo) - Importin beta complex formation; Rango CFP/YFP FRET sensor + importin beta, 45 min; Potency, µM (doses to about 92.2 µM), for the others: at the highest dose inhibition of complex formation; hit rate 0.031% among 340,000; AID 540263, 2011;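 further: potency means the concentration at half of the fitted maximal effect; 0% = DMSO wells and 100% = buffer wells lacking importin beta; nearly all actives have a fitted effect of over 15% in size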
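Inhibition scored from the CFP 486 nm/YFP 530 nm FRET ratio 45 min after adding 0.125 microM importin beta to 50 nM Rango biosensor preincubated 5 min with compound (room temperature, PBS with DTT, Tween-20, BSA). No-importin wells as positive control.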
Giardia kill: Small Molecules that selectively kill Giardia lamblia: qHTS | Giardia lamblia trophozoite viability | activity change, % at 7.66 µM, hits read low | hit rate 0.15% among 340,000; in the data active means activity change below about -80%; inconclusive means between about -30% and that limit;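 further: parasites exposed to compound for two days anaerobically before the ATP read; on the % scale 0 is the no-effect control and ±100 the full control effect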
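Killing of trophozoites was scored by loss of ATP luminescence after a 48 hrs anaerobic exposure to compounds at 37 deg C, using 100 cells per well.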
Rango release inh: qHTS Assay for Inhibitors of RanGTP induced Rango (Ran-regulated importin-beta cargo) - Importin beta complex dissociation | Potency, µM (titrated, usually from 46.1 µM), without a hit: at the highest dose activity change, negative = inhibition | Snurportin-1 (Homo sapiens) + GTP-binding nuclear protein Ran (Homo sapiens) + Importin … | AID 540253, 2011 | hit rate 0.071% among 340,000 | Biochemical FRET Rango-importin beta, RanGTP-induced dissociation; further: potency means the concentration at half of the fitted maximal effect; % of control where 0% means no effect; nearly all actives have a fitted effect of over 45% in size
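Quantitative HTS using a FRET biosensor: 0.1 uM Rango, 0.25 uM importin beta, 0.6 uM Ran, 2 mM GTP, 0.2 uM RCC1 final, PBS with DTT, Tween-20 and BSA. Post-read taken 45 min after Ran addition.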
Integrin act MD: qHTS for Activators of Integrin-Mediated Alleviation for Muscular Dystrophy. alpha7betagal myoblasts, beta-gal FDG fluorescence, 48 h. hit rate 0.064% among 350,000. Potency, µM (doses to about 38.3 µM), for the others: at the top dose activation, hits mostly activators; active means well fitted activation curve with a large enough effect; inconclusive means small, poorly fitted or top-dose-only effect; inactive means no such curve, though single readings can be large or run the other way;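 further: potency means the concentration at half of the fitted maximal effect; 100% = response of the positive control SU9516; nearly all actives have a fitted effect of over 60% in size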
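alpha7betagal+/- myoblasts (passage 13, 250/well) treated 48 h at 37C with compounds at 1:260 dilution of DMSO stock. Lysed, then beta-galactosidase activity read as FDG fluorescence (ex 480/em 540) after 30 min, with pre-read for autofluorescence.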
uPA surface inh: qHTS for Inhibitors of Cell Surface uPA Generation; cell surface uPA generation assay, qHTS; Potency, µM (titrated, usually from 38.3 µM), for the others: at the highest dose activity change, negative = inhibition, hits mostly inhibitors; hit rate 0.31% among 330,000; AID 540303, 2011; active means well fitted inhibition curve with a large enough effect; inconclusive means small, poorly fitted or top-dose-only effect; inactive means no such curve, though single readings can be large or run the other way; tested in mouse RAW 264.7 cells; further: potency means the concentration at half of the fitted maximal effect; on the % scale 0 is the no-effect control and ±100 the full control effect; nearly all actives have a fitted effect of over 55% in size
* = called active by the depositor; ? = inconclusive; · = no result. Rows were chosen to be rich in hits. Some 0.59% of all compounds tested hit in one or more screens of this group. Unless noted, the call rests on the fitted dose curve.

Letter code – A = Rango complex inh; B = Giardia kill; C = Rango release inh; D = Integrin act MD; E = uPA surface inh
> O=C1C=CC(=O)N1Cc1ccccc1
  A: -3%; B: 16; C: -9%; D: ·; E: 7.9µM*
> O=C1C2CC=CCC2C(=O)N1Cc1ccccc1 (configuration not stated)
  A: 2%; B: 4; C: -2%; D: -6%; E: 6%
> CCS(=O)(=O)N1CCC(C(=O)Nc2ccccc2OC)CC1
  A: -2%; B: 8; C: ?; D: 19%; E: 12%
> CC(C)OC(=O)N(C)C[C@H]1OCc2cnnn2CCCC(=O)N([C@H](C)CO)C[C@H]1C
  A: ·; B: ·; C: ·; D: 4%; E: ·
> CN(C)CCC1(c2ccccc2)CCN(C)C1=O (configuration not stated)
  A: ·; B: ·; C: ·; D: -4%; E: ·
> COC(=O)C[C@H]1C[C@H]2c3cc(NS(=O)(=O)c4ccc(OC)cc4)ccc3O[C@H]2[C@H](CO)O1
  A: ·; B: ·; C: ·; D: 24%; E: ·
> COc1cccc(N/C=C/C(=O)c2ccc(C)cc2)c1
  A: ?; B: -10; C: 15µM*; D: 57%; E: 8.9µM*
> COc1ccc(C2N=C(Nc3nc4ccccc4o3)NC3=C2C(=O)CC(C)(C)C3)cc1 (configuration not stated)
  A: ·; B: -17; C: ·; D: ·; E: ·
> Cc1ccc(-c2csc(NC(=O)c3cccc(N4C(=O)CCC4=O)c3)n2)o1
  A: -1%; B: -27; C: 1%; D: 7%; E: 3.5µM*
> CCOc1ccc(-c2csc(NC(=O)c3cccc(N4C(=O)CCC4=O)c3)n2)cc1
  A: 3%; B: 12; C: -1%; D: 5%; E: -2%
> CCOC(=O)C1CCN(C(=O)c2c(C)oc3c2C(=O)c2ccccc2C3=O)CC1
  A: 3%; B: ?; C: -9%; D: -7%; E: ?
> Cc1oc2c(c1C(=O)N1CCC(C)CC1)C(=O)c1ccccc1C2=O
  A: -1%; B: ?; C: 18%; D: -50%; E: 10µM*
> O=C1NC(=S)S/C1=C\C=C\c1ccc([N+](=O)[O-])o1
  A: -2%; B: -86*; C: 1%; D: -71%; E: 53%
> COc1ccc(C2CC(=O)Oc3c(C(CCN4CCOCC4)c4ccc5c(c4)OCO5)c(OC)cc(OC)c32)cc1 (configuration not stated)
  A: ·; B: -6; C: ·; D: ·; E: ·
> COCCn1c(=N)c(S(=O)(=O)c2ccc(F)cc2)cc2c(=O)n3ccccc3nc21
  A: ?; B: -3; C: ?; D: 13%; E: -4%
> COCCn1c(=N)c(S(=O)(=O)c2ccc(Br)cc2)cc2c(=O)n3ccccc3nc21
  A: -2%; B: 17; C: ?; D: 4.5µM*; E: 4%
> Cc1ccc(C)n1-c1ccc(-c2ccnc(N)n2)cc1
  A: ?; B: 9; C: 15µM*; D: -33%; E: -7%
> CC(C)(C)OC(=O)N1CCN(c2nc(-c3cccs3)nc3ccccc23)CC1
  A: ·; B: -29; C: ·; D: ·; E: ·
> COc1ccc(C(CNC(=O)c2oc3cc(Br)ccc3c2C)N2CCCCC2)cc1 (configuration not stated)
  A: -1%; B: ?; C: 11%; D: 0%; E: 6%
> COc1ccc(C(CNC(=O)c2oc3ccc(Br)cc3c2C)N2CCCCC2)cc1 (configuration not stated)
  A: -2%; B: -6; C: 1.5µM*; D: -21%; E: -2%
> COc1ccc(C(CNC(=O)c2cccc(N(C)C)c2)N2CCCC2)cc1 (configuration not stated)
  A: -3%; B: 3; C: -1%; D: -39%; E: -5%
> CCC1CCc2sc(C(=O)NCC(c3ccc(OC)cc3)N3CCCC3)cc2C1 (configuration not stated)
  A: 58µM*; B: -2; C: 30%; D: -56%; E: -7%
> O=C1c2ccccc2C(=O)N1c1ccc(S(=O)(=O)N2CCOCC2)cc1
  A: ·; B: 5; C: ·; D: ·; E: ·
> CCN(CC)c1ccc(/C=C(/C#N)c2nc3ccccc3[nH]2)c(OC(C)C)c1
  A: ?; B: -3; C: ?; D: -126%; E: 10µM*
> c1ccc(N=c2nc(-c3ccccc3)n(-c3ccccc3)s2)cc1
  A: ·; B: 9; C: ·; D: ·; E: ·

2 records picked at random from those above, as already listed:
Letter code – A = Rango complex inh; B = Giardia kill; C = Rango release inh; D = Integrin act MD; E = uPA surface inh
> CC(C)(C)OC(=O)N1CCN(c2nc(-c3cccs3)nc3ccccc23)CC1
  A: ·; B: -29; C: ·; D: ·; E: ·
> c1ccc(N=c2nc(-c3ccccc3)n(-c3ccccc3)s2)cc1
  A: ·; B: 9; C: ·; D: ·; E: ·

Look-ups from the list.
O=C1C2CC=CCC2C(=O)N1Cc1ccccc1 (configuration not stated) in Giardia kill = 4
COCCn1c(=N)c(S(=O)(=O)c2ccc(Br)cc2)cc2c(=O)n3ccccc3nc21 in uPA surface inh = 4%
COCCn1c(=N)c(S(=O)(=O)c2ccc(F)cc2)cc2c(=O)n3ccccc3nc21 in uPA surface inh = -4%

Next results.
Letter code – A = Rango complex inh; B = Giardia kill; C = Rango release inh; D = Integrin act MD; E = uPA surface inh
> COc1ccccc1N1CCN(Cc2cc(Br)c(O)c3ncccc23)CC1
  A: 0%; B: 0; C: -12%; D: -34%; E: 2.8µM*
> COc1ccc(Cl)cc1C(=O)O/N=C(\N)c1ccccn1
  A: -2%; B: 29; C: -15%; D: -4%; E: 10µM*
> N/C(=N\OC(=O)/C=C/c1ccccc1Cl)c1ccccn1
  A: 7%; B: 10; C: 1%; D: -24%; E: 3.5µM*
> c1ccc(-c2csc(CN3CCCCC3)n2)cc1
  A: 0%; B: 4; C: -11%; D: 14%; E: -6%
